Test results: article PMC5717261

B1: Recombinant human mannose-binding lectin (MBL) [human] / Recombinant human bone morphogenetic protein-1 (BMP-1) with a C-terminal FLAG tag [human] (parent)
chain 1: ETVTCEDAQKTCPAVIACSSPGINGFPGKDGRDGTKGEKGEPGQGLRGLQGPPGKLGPPGNPGPSGSPGPKGQKGDPGKSPDGDSSLAASERKALQTEMARIKKWLTFSLGKQVGNKFFLTNGEIMTFEKVKALCVKFQASVATPRNAAENGAIQNLIKEEAFLGITDEKTEGQFVDLTGNRLTYTNWNEGEPNNAGSDEDCVLLLKNGQWNDVPCSTSHLAVCEFPI
chain 2: AATSRPERVWPDGVIPFVIGGNFTGSQRAVFRQAMRHWEKHTCVTFLERTDEDSYIVFTYRPCGCCSYVGRRGGGPQAISIGKNCDKFGIVVHELGHVVGFWHEHTRPDRDRHVSIVRENIQPGQEYNFLKMEPQEVESLGETYDFDSIMHYARNTFSRGIFLDTIVPKYEVNGVKPPIGQRTRLSKGDIAQARKLYKCPACGETLQDSTGNFSSPEYPNGYSAHMHCVWRISVTPGEKIILNFTSLDLYRSRLCWYDYVEVRDGFWRKAPLRGRFCGSKLPEPIVSTDSRLWVEFRSSSNWVGKGFFAVYEAICGGDVKKDYGHIQSPNYPDDYRPSKVCIWRIQVSEGFHVGLTFQSFEIERHDSCAYDYLEVRDGHSESSTLIGRYCGYEKPDDIKSTSSRLWLKFVSDGSINKAGFAVNFFKEVDECSRPNRGGCEQRCLNTLGSYKCSCDPGYELAPDKRRCEAACGGFLTKLNGSITSPGWPKEYPPNKNCIWQLVAPTQYRISLQFDFFETEGNDVCKYDFVEVRSGLTADSKLHGKFCGSEKPEVITSQYNNMRVEFKSDNTVSKKGFKAHFFSEKRPALQPPRGRPHQLKFRVQKRNRTPQ
B2: Recombinant human mannose-binding lectin (MBL) [human] / Recombinant human mammalian tolloid-like-1 (mTLL-1) with a C-terminal 6x-His tag [human] (parent)
chain 1: B1 chain 1
chain 2: AATSRTERIWPGGVIPYVIGGNFTGSQRAMFKQAMRHWEKHTCVTFIERSDEESYIVFTYRPCGCCSYVGRRGNGPQAISIGKNCDKFGIVVHELGHVIGFWHEHTRPDRDNHVTIIRENIQPGQEYNFLKMEPGEVNSLGERYDFDSIMHYARNTFSRGMFLDTILPSRDDNGIRPAIGQRTRLSKGDIAQARKLYRCPACGETLQESNGNLSSPGFPNGYPSYTHCIWRVSVTPGEKIVLNFTTMDLYKSSLCWYDYIEVRDGYWRKSPLLGRFCGDKLPEVLTSTDSRMWIEFRSSSNWVGKGFAAVYEAICGGEIRKNEGQIQSPNYPDDYRPMKECVWKITVSESYHVGLTFQSFEIERHDNCAYDYLEVRDGTSENSPLIGRFCGYDKPEDIRSTSNTLWMKFVSDGTVNKAGFAANFFKEEDECAKPDRGGCEQRCLNTLGSYQCACEPGYELGPDRRSCEAACGGLLTKLNGTITTPGWPKEYPPNKNCVWQVVAPTQYRISVKFEFFELEGNEVCKYDYVEIWSGLSSESKLHGKFCGAEVPEVITSQFNNMRIEFKSDNTVSKKGFKAHFFSDKDECSKDNGGCQHECVNTMGSYMCQCRNGFVLHDNKHDCKEAECEQKIHSPSGLITSPNWPDKYPSRKECTWEISATPGHRIKLAFSEFEIEQHQECAYDHLEVFDGETEKSPILGRLCGNKIPDPLVATGNKMFVRFVSDASVQRKGFQATHSTECGGRLKAESKPRDLYSHAQFGDNNYPGQVDCEWLLVSERGSRLELSFQTFEVEEEADCGYDYVELFDGLDSTAVGLGRFCGSGPPEEIYSIGDSVLIHFHTDDTINKKGFHIRYKSIRYPDTTHTKK

Variants of: B1
Test: SPR
Details: with Recombinant human bone morphogenetic protein-1 (BMP-1) with a C-terminal FLAG tag [human]; 16 nM MBL injected over immobilized BMP-1 (2,300 RU); 50 mM triethanolamine-HCl, 145 mM NaCl, 2 mM CaCl2, 0.005% surfactant P20, pH 7.4; read off a plot

Going from chain 1 K55A to chain 1 K55E, the response falls from 25 RU to 20 RU.

Variants of: B2
Test: SPR
Details: with Recombinant human mammalian tolloid-like-1 (mTLL-1) with a C-terminal 6x-His tag [human]; 16 nM MBL injected over immobilized mTLL-1 (310 RU); 50 mM triethanolamine-HCl, 145 mM NaCl, 2 mM CaCl2, 0.005% surfactant P20, pH 7.4; read off a plot

Compared with chain 1 K55A, chain 1 K55E is lower in response: 22 RU for the first, 13 RU for the second.
